Columns and labels:
human APLNR = biological target: T1, human APLNR (Homo sapiens, UniProt P35414); test: AP-ELA binding assay, 293T cells overexpressing receptor; conditions: HEK293T overexpression
T1 sequence (P35414 1-380): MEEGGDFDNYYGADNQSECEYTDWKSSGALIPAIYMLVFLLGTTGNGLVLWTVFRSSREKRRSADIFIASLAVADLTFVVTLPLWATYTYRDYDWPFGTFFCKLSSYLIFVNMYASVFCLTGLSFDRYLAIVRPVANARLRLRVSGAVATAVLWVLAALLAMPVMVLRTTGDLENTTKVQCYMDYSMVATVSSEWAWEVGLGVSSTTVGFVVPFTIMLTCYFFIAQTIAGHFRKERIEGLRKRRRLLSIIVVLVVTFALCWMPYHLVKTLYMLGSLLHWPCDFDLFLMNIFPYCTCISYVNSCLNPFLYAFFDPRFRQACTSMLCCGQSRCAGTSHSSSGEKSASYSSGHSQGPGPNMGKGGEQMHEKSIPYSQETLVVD

hESCs [1] = test: xCELLigence real time growth assay, cell counts and colony size of hESCs; assay type: cell-based, human; conditions: cell counts, colony size, real-time cell indices; peptide 2.5 uM (10 μg/ml)
Method: Feeder-free hESCs were cultured in clumps in mTSER1 (Stem Cell Technologies) on Matrigel (BD 354277).
hESCs were dissociated into single cells using Accutase (Stem Cell Technologies) and plated in the presence of 10 μM Y-27632 (ROCK inhibitor) for 12 hours (Watanabe et al., 2007).
For xCELLigence real time growth assays, 4000 cells were plated per well of an E-plate (ACEA Biosciences) with media changes every 48 hours.
Recombinant ELA was added at 2.5 uM (or 10 μg/ml). Cell cycle studies were performed with Click-iT EDU staining kit (Invitrogen) and by performing a double thymidine block (2.5 mM thymidine; 16 hour block, 8 hour release, 16 hour block) followed by DAPI staining for DNA content at the indicated times following release.

hESCs [2] = test: insulin replacement assay in hESCs; assay type: cell-based, human; conditions: cell index measurements over 5 days
Method: For insulin replacement assays, SHEF4 or HESC3 hESCs were cultured in TSER-E5 (Stem Cell Technologies) supplemented with TGF-β (5 ng/ml, R&D Systems) and bFGF (100 ng/ml, Invitrogen) with and without INSULIN (10 ug/ml, SIGMA).

hESCs [3] = test: stress-induced apoptosis of hESCs by ionizing radiation; assay type: cell-based, human; conditions: ELA-treated hESCs

Substance	cell-surface binding of AP-ELA to human APLNR (human APLNR)	growth of hESCs relative to untreated cells (hESCs [1])	replacement of INSULIN in hESC growth, cell index (hESCs [2])	resistance to gamma irradiation relative to control (hESCs [3]) [times]
AP-ELA: mature C-terminal 32-mer of ELA cloned in frame with alkaline phosphatase, secreted from 293T cells	sufficient to afford cell-surface binding			
QRPVNLTMRRKLRKHNCLQRRCMPLHSRVPFP [ELA]		dose-dependent enhanced growth	partially replaces INSULIN	5

From patent US9902761B2, “Polypeptides, nucleic acids and uses thereof” (AGENCY FOR SCIENCE, TECHNOLOGY AND RESEARCH, priority 2013, dated 2018)
